PKA-R2B act: activators of human PKA-R2B complex. PKA-R2B holoenzyme dissociation, Cy5-IP20 fluorescence polarization; R2B truncated from residue 108, S112A mutant; 0% DMSO only, 100% 113 µM cGMP. activation, % at 11.4 µM. hit rate 0.079% among 340,000;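 active = activation above a cutoff set at the mean over all compounds plus 3 SD, cut at about 18% in these data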;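 note: higher means more holoenzyme dissociation and a rise in polarization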
ABCB6 inh 2: blocks the human ABCB6 transporter; K562-ABCB6 porphyrin accumulation, flow cytometry, 1 h; stronger effect = lower value; fluorescence ratio to DMSO, % at 10 µM; hit rate 0.19% among 360,000;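 active = fluorescence ratio to DMSO below 75%, the collection mean minus 3 SD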;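 note: signal is porphyrin accumulated inside mitochondria; lower ratio means ABCB6 inhibition with less porphyrin fluorescence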
pCIP destab: lowers stability of the mouse p/CIP coactivator protein. Q05BA5. F442A p/CIP-EGFP cells, EGFP fluorescence, 16 h. decrease of EGFP signal, % at 10 µM. hit rate 0.01% among 290,000;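 active = EGFP signal decrease of at least 30% at 10 µM or well 3 SD below plate mean, unless failing retest; inactive = the rest, including hits failing retest or dose response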
Exocytosis inh: blocks lytic granule exocytosis; inhibition, % at 10 µM; TALL-104 LAMP-1 surface exposure, flow cytometry; cells stimulated with thapsigargin and PMA; AID 651702; hit rate 0.66% among 360,000;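 active = inhibition above about 55%, limit read from the data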
PKA-R1A activ: PKA-R1A complex activation; AID 504707; P00514+P68181; hit rate 0.083% among 340,000; activation, % at 11.4 µM; PKA-R1A dissociation, Cy5-IP20 fluorescence polarization; scaled: DMSO 0%, 113 µM cGMP 100%;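 active = percent activation above the mean of all tested compounds plus 3 SD, cut at about 19% in these data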;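 note: higher means more PKAc released from R1A so a rise in polarization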
UUG fidelity: alters start codon recognition fidelity in yeast. S. cerevisiae UUG-firefly luciferase reporter, luminescence/redox ratio. activity score, % at 18.7 µM. 0.13% of 350,000 active. AID 602363;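 active = replicate mean at a twofold rise or more, about +100% in these data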;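 also: firefly luciferase made from a UUG start codon reports start codon fidelity; reporter light over untreated wells divided by growth signal over untreated wells; some hits fall short of that in this replicate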
Hits are given with their value; – = inactive; · = not tested or not shown. Shown are actives, neighbours in structure and some others; about 0.94% of the full set was active somewhere.

SMILES | PKA-R2B act | ABCB6 inh 2 | pCIP destab | Exocytosis inh | PKA-R1A activ | UUG fidelity
CN1CCN(C(=O)C[C@@H]2C[C@@H]3c4cc(NC(=O)NC5CCCCC5)ccc4O[C@@H]3[C@@H](CO)O2)CC1 | · | · | · | · | · | –
CCCC#Cc1ccc([C@@H]2[C@H](C#N)N(C(=O)C3CCCC3)[C@H]2CO)cc1 | · | · | · | · | · | –
CC(C)(C)c1ccc(CN2N=Nc3ccccc3S2(=O)=O)cc1 | – | – | – | 97 | – | –
CC(C)c1ccc(C2NC(=S)NC3=C2C(=O)CCC3)cc1 (stereo not drawn) | – | 69 | – | – | – | –
C[C@H]1CN([C@@H](C)CO)C(=O)c2cc(NC(=O)Cc3cn(C)c4ccccc34)ccc2O[C@H]1CN(C)S(=O)(=O)c1ccccc1 | · | · | · | · | · | –
COc1ccc(NC(=O)/C(Cl)=C(/Cl)S(=O)Cc2ccc(Cl)cc2)cn1 (stereo not drawn) | – | 37 | · | – | – | ·
COc1ccc(NC(=O)/C(Cl)=C(/Cl)S(=O)(=O)Cc2ccccc2)cn1 | – | 60 | – | 100 | – | –
CC(C)NC(=O)N(C)C[C@H]1OCc2ccccc2-c2ccccc2C(=O)N([C@@H](C)CO)C[C@@H]1C | · | · | · | · | · | –
Cc1ccsc1/C=C/C1=Cc2c(sc(NC(=O)CSc3n[nH]c(N)n3)c2C#N)C(C)(C)C1 | – | – | – | 101 | – | –
CCOc1ccc(/C=C/C2=Cc3c(sc(NC(=O)CSc4n[nH]c(N)n4)c3C#N)C(C)(C)C2)cc1 | – | – | – | 78 | – | ·
NC(=O)c1ccsc1NC(=O)CSc1n[nH]c(N)n1 | · | – | · | – | · | –
CN1CCN(C(=O)C[C@@H]2C[C@@H]3c4cc(NC(=O)NC5CCCC5)ccc4O[C@@H]3[C@@H](CO)O2)CC1 | · | · | · | · | · | –
COc1ccc(NC2=Nc3ccccc3N3C2=Nc2c(c(C)nn2-c2ccc(C)cc2)C3c2cccnc2)cc1 (stereo not drawn) | – | – | – | – | – | ·
CC(=O)Nc1ccc(NC2=Nc3ccccc3N3C2=Nc2c(c(C)nn2-c2ccccc2)C3c2ccccc2)cc1 (stereo not drawn) | – | – | – | 58 | – | –
CC(=O)c1ccc(NC(=O)/C(=C\c2ccc(F)cc2)NC(=O)c2ccco2)cc1 | – | 74 | – | – | – | –
CCCN(Cc1ccccc1)C(=S)Nc1ccc(SC(F)F)cc1 | – | – | – | 90 | – | –
CCCC(=O)Nc1ccc2c(c1)C(=O)N(C)[C@H]1CC[C@@H](CC(=O)O)O[C@H]1CO2 | · | · | · | · | · | –
CC1=C/C(=N\OS(=O)(=O)c2ccccc2)C(C(C)C)=CC1=O | – | – | – | – | – | ·
CC1=C/C(=N\OS(=O)(=O)c2ccccc2)C(C)=CC1=O | – | – | – | 99 | – | –
CCN(CC)CCN(C(=O)c1ccc2c(c1)CCCC2)c1nc2cc(OC)c(OC)cc2s1 | – | – | – | 56 | – | –
CCC(=O)Nc1ccc2c(c1)C(=O)N(C)[C@@H]1CC[C@@H](CC(=O)O)O[C@@H]1CO2 | · | · | · | · | · | –
COc1cc(N(C)C)ccc1C=c1c2ccccc2n2c1cc(-c1ccccc1)[n+]2C | – | – | · | 100 | – | ·
CN(C)c1ccc(C=c2c3ccccc3n3c2cc(-c2ccc(Cl)cc2)[n+]3C)cc1 | – | – | · | – | – | ·
CN(C)c1ccc(C=c2c3ccccc3n3c2cc(-c2ccccc2)[n+]3C)cc1 | – | – | · | 89 | – | ·
CN(C)c1ccc(C=c2c3ccccc3n3c2c2c([n+]3C)CCCC2)cc1 | – | – | · | 70 | – | ·
SMILES | PKA-R2B act | ABCB6 inh 2 | pCIP destab | Exocytosis inh | PKA-R1A activ | UUG fidelity
C[C@H](O)C#Cc1ccc2c(c1)O[C@@H](CN(C)C(=O)CN(C)C)[C@@H](C)CN([C@H](C)CO)S2(=O)=O | · | · | · | · | · | –
CCC(=O)N(C)C[C@H]1Oc2cc(-c3ccccc3)ccc2S(=O)(=O)N([C@@H](C)CO)C[C@@H]1C | · | · | · | · | · | –
Cc1ccc2nc(-c3ccc(NC(=S)NCC(C)(C)CN(C)C)cc3)sc2c1 | – | – | · | 56 | – | ·
CCC(C)(C)NC(=S)Nc1ccc(-c2nc3ccc(C)cc3s2)cc1 | – | – | – | – | – | –
CO[C@H]1CN(C)C(=O)c2ccc(NC(C)=O)cc2OC[C@@H](C)N(C(=O)c2ccncc2)C[C@H]1C | · | · | · | · | · | –
O=C(Nc1ccccc1F)N1C[C@@H]2[C@H](c3ccccc31)[C@H](CO)N2C(=O)c1ccc(F)cc1 | · | · | · | · | · | –
Clc1ccc(-c2ccc(/C=N/Nc3cc(N4CCOCC4)nc(N4CCOCC4)n3)o2)cc1 | – | – | – | 83 | – | –
COc1ccc(C2CC(C(F)(F)F)n3nc(C(=O)O)c(Cl)c3N2)cc1OC (stereo not drawn) | – | – | – | – | – | 335
C[C@H]1CN([C@@H](C)CO)C(=O)c2cc(NC(=O)c3ccncc3)ccc2O[C@@H]1CN(C)C(=O)Nc1ccc2c(c1)OCO2 | · | · | · | · | · | –
CN1CCN(C(=O)C[C@@H]2CC[C@@H]3[C@H](COC[C@H](O)CN3Cc3cccc(-c4ccncc4)c3)O2)CC1 | · | · | · | · | · | –
CC1=CC(=O)c2ccccc2C1=O | – | – | – | – | – | –
COc1cccc2c1C(=O)C=C(C)C2=O | – | – | – | 64 | – | –
C[C@H](CO)N1C[C@H](C)[C@@H](CN(C)Cc2ccc(C(=O)Nc3ccccc3N)cc2)Oc2c(NC(=O)Nc3ccc4c(c3)OCO4)cccc2C1=O | · | · | · | · | · | –
Cc1ccc(-c2ccc3c(c2)O[C@@H](CN(C)Cc2ccncc2)[C@@H](C)CN([C@@H](C)CO)S3(=O)=O)cc1 | · | · | · | · | · | –
CCCCCC1C(C(=O)OCC)C(=O)NC1(C(=O)OCC)C(=O)OCC (stereo not drawn) | – | – | · | 95 | – | –
CCCCCC1CC(=O)NC1(C(=O)OCC)C(=O)OCC (stereo not drawn) | – | – | · | – | – | ·
CO[C@H]1CN(C)C(=O)c2ccc(NC(=O)C3CCC3)cc2OC[C@@H](C)N(Cc2cccnc2)C[C@H]1C | · | · | · | · | · | –
Cc1c(NC(C)c2ccccc2O)c(=O)n(-c2ccccc2)n1C (stereo not drawn) | – | 54 | – | – | – | –
Cc1ccc(C)c(S(=O)(=O)Nc2cc(SCC(=O)O)c(O)c3ccccc23)c1 | – | – | – | 78 | – | ·
CCOc1ccc(S(=O)(=O)Nc2cc(SCC(=O)O)c(O)c3ccccc23)cc1 | – | – | – | – | – | –
Cc1ccc(S(=O)(=O)Nc2ccc3c(c2)C(=O)N([C@H](C)CO)C[C@H](C)[C@H](CN(C)C(=O)c2ccccc2)OCCCC[C@H](C)O3)cc1 | · | · | · | · | · | –
CCC(=C(c1ccc(OC)cc1)c1ccc(OC)cc1)c1cn(CC(O)CN(CCO)CCO)c2ccccc12 (stereo not drawn) | – | – | – | 72 | – | ·
COc1ccc(OCC(O)CN(CCO)CC(O)Cn2ccc3ccccc32)cc1 (stereo not drawn) | – | – | – | – | – | –
